In PubChem BioAssay AID588727 (Southern Research Specialized Biocontainment Screening …, 2011):
The list shows a part of the results, in another mix than the full data. Entries with a potency or affinity are not part of this list. Active and inactive are the calls of the source. The rule behind the calls is not given here.

Test: inhibitors of VEEV TC-83 cytopathic effect, confirmation, Vero cells (AID 588727)
Conditions: VEEV TC-83 cytopathic effect inhibition, at 20 µM, active compounds read high

SMILES	inhibition
CCC(=O)N(c1ccccc1)C1(COC)CCN(CCn2nnn(CC)c2=O)CC1	inactive: 0.74%
CCC(=O)N(c1ccccc1)C1(COC)CCN(CCc2cccs2)CC1	inactive: 0.37%
